For one molecule, IC50 results are on record in ChEMBL document CHEMBL2086363, “Lipophilic Isosteres of a π-π Stacking Interaction: New Inhibitors of the Bcl-2-Bak Protein-Protein Interaction” (ACS Med Chem Lett, 2012).

Sequences of proteins named here, by UniProt entry; tags and fusion partners are left off.
UniProt Q07820, whole entry: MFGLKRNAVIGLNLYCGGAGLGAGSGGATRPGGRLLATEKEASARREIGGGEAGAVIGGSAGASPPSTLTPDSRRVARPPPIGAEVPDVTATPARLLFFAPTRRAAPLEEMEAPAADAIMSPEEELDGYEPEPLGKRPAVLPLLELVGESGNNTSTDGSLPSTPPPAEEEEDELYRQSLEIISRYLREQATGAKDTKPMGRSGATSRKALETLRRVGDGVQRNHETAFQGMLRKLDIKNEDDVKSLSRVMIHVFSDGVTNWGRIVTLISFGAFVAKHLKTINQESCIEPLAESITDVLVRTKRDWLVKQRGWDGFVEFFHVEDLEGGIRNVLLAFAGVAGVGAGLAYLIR

This test addresses MCL1-BAK1 complex (Homo sapiens, UniProt Q07820). Put plainly: Inhibition of Mcl1-BAK interaction. It is filed as protein-complex assay.

The IC50 is the point on the concentration scale where inhibition reaches its midpoint. Lower therefore signals higher potency.

Consider `CN(C)CC[C@H](CSc1ccccc1)Nc1ccc(S(=O)(=O)NC(=O)c2ccc(N3CCN(Cc4ccccc4-c4ccc(Cl)cc4)CC3)cc2)cc1[N+](=O)[O-]` [ABT 737], for which the IC50 was over 50 µM.
